Reference: patent US12394803B2, “Production method of catalyst, catalyst, production method of composition, composition, electrode, manufacturing method of electrode, fuel cell, metal-air battery” (Azul Energy Inc., priority 2019, dated 2025)

Iron tetraphenylporphine [FeTPP]
Dissolution in DMSO (solution transparent and blue) (0.1 g/L in DMSO, FIG. 3): dissolved in DMSO | Dissolution in THF (crystal structures seen by SEM) (THF, catalyst of Comparative Example 1, FIG. 8): not dissolved in THF
